Laboratory results published in patent publication US7456201B2, “Pharmaceutically active compounds and methods of use” (Laboratoires Serono SA, priority 2000, dated 2008).

Test system: untransfected CHO parental cells
Assay: CHO parental cells assay (intracellular cAMP, RIA)
Format: cell-based, Chinese Hamster
Conditions: 10^−7 (M) dose, previous experiment
Procedure: Briefly CHO parental cells were plated in 96 well packard view plates 5×10^4 cells/well in serum containing media. After 20 hours the cells were confluent. The wells were washed with serum free assay medium (containing 0.1 mM MIX) and pre-incubated for 15 minutes in this medium. Compound 1 and forskolin (positive control) were added and the cells were incubated for an additional one hour. The cells were lysed and intracellular cAMP was measured using the Amersham direct one step cAMP-RIA kit according to the manufacturers directions.

Substance: rhFSH: rhFSH, follicle stimulating hormone (FSH)
- intracellular cAMP response over background: no response over background
